The list shows a part of the results, in another mix than the full data. The source made the active and inactive calls.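 How the source made its calls: active means at either tested dose, response and 90th-percentile vesicle-stain brightness of CD8 cells under set limits and under 9% cells vesicle-bound; inactive means the rest.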

This assay is described as follows: modulators of CD8 T cell-vesicle binding, confirmation, cherry-picked primary hits, two concentrations (AID 2810).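 Further: ratio of mean FL2 vesicle stain of CD8+ cells to that row's control.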 The conditions noted are these: 2C CD8+ T cell-vesicle binding, flow cytometry; at 15.4 µM; stronger effect = lower value.
In the case of `C[N+]1=C2C=CC=CC=C2SC12C([N+](=O)[O-])=CC([N+](=O)[O-])=C[C-]2[N+](=O)[O-]` (stereo unspecified), the percent response (vesicle binding) is inactive: 253%.
